Source: article PMC9144445, “Substrate-Based Design of Cytosolic Nucleotidase IIIB Inhibitors and Structural Insights into Inhibition Mechanism” (Pharmaceuticals, 2022)

Biological target: T1, human cN-IIIB (Homo sapiens, UniProt Q969T7)
T1 sequence (Q969T7 1-300): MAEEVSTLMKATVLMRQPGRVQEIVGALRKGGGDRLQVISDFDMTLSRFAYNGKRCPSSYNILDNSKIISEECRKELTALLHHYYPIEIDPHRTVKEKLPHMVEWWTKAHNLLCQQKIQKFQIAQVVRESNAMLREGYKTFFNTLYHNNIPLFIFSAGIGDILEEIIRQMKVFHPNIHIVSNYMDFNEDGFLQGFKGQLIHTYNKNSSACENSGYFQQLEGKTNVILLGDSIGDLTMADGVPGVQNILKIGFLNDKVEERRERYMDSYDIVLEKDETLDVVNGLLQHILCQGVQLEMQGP
Experiment: Hydrolysis assay: susceptibility to hydrolysis by cN-IIIB (MGP assay)
Type: biochemical
Set-up: expressed as a construct of full-length protein (residues 1–300); His6 (N, cleaved yes); ubiquitin-like Smt protein (SUMO) (N, cleaved yes); made in house
Settings: cN-IIIB 80 nM, 45 min; for Susceptibility to hydrolysis by cN-IIIB (in words): compound 100 μM

| Susceptibility to hydrolysis by cN-IIIB (in words) | Dephosphorylation of compound by cN-IIIB (absolute) (100 μM) | SMILES |
| --- | --- | --- |
| prevented hydrolysis |  | C[n+]1cn([C@@H]2O[C@H](COP(=O)([O-])O)[C@@H](O)[C@H]2NC(=O)CCCC[C@@H]2SC[C@@H]3NC(=O)N[C@@H]32)c2nc(N)[nH]c(=O)c21 [Compound S32] |
| confirmed as a cN-IIIB substrate |  | C[n+]1cn([C@@H]2O[C@H](Cn3cc(COP(=O)([O-])O)nn3)[C@@H](O)[C@H]2O)c2nc(N)[nH]c(=O)c21 [Compound S17] |
|  | about 40% | C[n+]1cn([C@@H]2O[C@H](COP(=O)([O-])O)[C@@H](O)[C@H]2O)c2nc(N)[nH]c(=O)c21 [m7GMP, 7-mehtylguanosine monophosphate, reference compound] |
| susceptible to hydrolysis |  | C[n+]1cn([C@@H]2O[C@H](COP(=O)(O)O)[C@@H](OC(=O)NCCC(=O)[O-])[C@H]2O)c2nc(N)[nH]c(=O)c21 [Compound S31] |
| susceptible to hydrolysis |  | C#CCn1c(N)nc2c(ncn2[C@@H]2O[C@H](COP(=O)(O)O)[C@@H](O)[C@H]2O)c1=O [Compound S23] |
